Laboratory results taken from PubChem BioAssay AID588456 (National Center for Advancing Translational Sciences (NCATS), 2011).
This is a selection; strong and weak results do not stand in their true shares. Some structures show a salt or complex split into parts, the way the source records it. The source made the active and inactive calls. Calls follow the shape of the dose curve; as a rule, active = well fitted inhibition curve with a large enough effect; inconclusive = small, poorly fitted or top-dose-only effect; inactive = no such curve, though single readings can be large or run the other way.

By UniProt entry, the sequences of proteins in these tests, tags left out.
UniProt O89049, whole entry: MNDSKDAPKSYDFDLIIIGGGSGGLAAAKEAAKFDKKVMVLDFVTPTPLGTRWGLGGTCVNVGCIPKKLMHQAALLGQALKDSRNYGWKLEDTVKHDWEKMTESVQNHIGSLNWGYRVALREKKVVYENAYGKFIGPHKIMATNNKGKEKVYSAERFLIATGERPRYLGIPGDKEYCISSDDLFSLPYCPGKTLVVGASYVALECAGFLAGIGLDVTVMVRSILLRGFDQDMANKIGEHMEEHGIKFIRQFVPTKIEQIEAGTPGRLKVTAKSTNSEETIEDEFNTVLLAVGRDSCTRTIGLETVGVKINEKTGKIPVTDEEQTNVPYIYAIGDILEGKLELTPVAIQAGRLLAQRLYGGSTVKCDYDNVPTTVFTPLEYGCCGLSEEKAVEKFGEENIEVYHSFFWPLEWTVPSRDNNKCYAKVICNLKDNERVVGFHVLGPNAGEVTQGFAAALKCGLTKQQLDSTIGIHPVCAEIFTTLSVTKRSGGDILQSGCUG

target: Thioredoxin reductase 1, cytoplasmic (Rattus norvegicus) (UniProt O89049); assay: qHTS Assay for Substrates of Mammalian Selenoprotein Thioredoxin Reductase 1 (TrxR1): qHTS; conditions: purified TrxR1 substrate turnover, NADPH consumption readout; at 114 µM (top of the series) unless noted; also: nearly all actives have a fitted effect of over 50% in size
% is scaled to controls: 0 for no effect and ±100 for the full control effect.

Row | Compound | activity change, negative = substrate turnover
1 | CC(C)c1ccc(C(=O)NCC2(N3CCOCC3)CCCCC2)cc1 | inactive: -3.78%
2 | COc1ccc(NC2CCN(C(=O)OC(C)(C)C)CC2)cc1 | inactive: 2.44%
3 | CN1CCN(CCOC(=O)C(O)(c2ccccc2)c2ccccc2)CC1 | inactive: -4.48%
4 | O=C(NCC1(N2CCOCC2)CCCCC1)c1cc(=O)[nH]c2ccccc12 | inactive: 13.4% [at 57.1 µM]
5 | COc1cc(C(=O)NCC2(N3CCCCC3)CCCCC2)ccc1OC(F)F | inactive: 2.83%
6 | O=C(NCC1(N2CCCCC2)CCCCC1)c1cccc(C(F)(F)F)c1 | inactive: 6.28%
7 | CCCOc1cccc(C(=O)NCC2(N3CCOCC3)CCCCC2)c1 | inactive: -3.78%
8 | O=[N+]([O-])c1cc([N+](=O)[O-])c(NCC2CCS(=O)(=O)C2)c([N+](=O)[O-])c1 (stereo unspecified) | inactive: 8.78% [at 57.1 µM]
9 | CCOc1ccc(C(=O)NCC2(N3CCOCC3)CCCCC2)cc1 | inactive: 0.169%
10 | O=C(NCC1(N2CCCCC2)CCCCC1)c1cccc([N+](=O)[O-])c1 | inactive: -0.431%
11 | CSc1ccc(C(=O)NCC2(N3CCOCC3)CCCCC2)cc1 | inactive: -5.88%
12 | CCN1CCC(Nc2ccc(Cl)cc2)CC1 | inactive: 3.94%
13 | N#CC1(Nc2ccccc2)CCN(CCc2ccccc2)CC1 | inactive: 8.1%
14 | O=C(NCC1(N2CCCCC2)CCCCC1)c1ccc(OC(F)F)cc1 | inactive: 6.35% [at 57.1 µM]
15 | CCCCOc1ccccc1C(=O)NCC1(N2CCOCC2)CCCCC1 | inactive: 1.16%
16 | O=C(NCC1(N2CCOCC2)CCCCC1)c1ccccc1Br | inactive: 2.04%
17 | CCCOc1ccc(C(=O)NCC2(N(C)C)CCCCC2)cc1OC | inactive: -3.3%
18 | CN1CCC(Nc2cccc(F)c2)CC1 | inactive: -4.75%
19 | COc1ccc2c(c1O)-c1c(O)c(OC)cc3c1[C@H](C2)[N+](C)(C)CC3.O=[N+]([O-])c1cc([N+](=O)[O-])c([O-])c([N+](=O)[O-])c1[O-] | inactive: 130%
20 | O=C(NCC1(N2CCCCC2)CCCCC1)c1cncc(Br)c1 | inactive: -3.77%
21 | O=C(OC1CN2CCC1CC2)c1ccc([N+](=O)[O-])cc1 (stereo unspecified) | inactive: 15.9%

Row | Compound | activity change, negative = substrate turnover
22 | COc1cc(OC)c(C(=O)NCC2(N(C)C)CCCCC2)cc1OC | inactive: 10.4%
23 | O=C(NCC1(N2CCOCC2)CCCCC1)c1cc(F)c(F)cc1Cl | inactive: 3.36%
24 | COc1ccc(CN(CCCl)CCCl)cc1Cl | inactive: 5.88%
25 | CN(C)c1cccc(C(=O)NCC2(N3CCCCC3)CCCCC2)c1 | inactive: 3.68%
26 | O=[N+]([O-])c1cc([N+](=O)[O-])c(OC2CCCCC2O)c([N+](=O)[O-])c1 (stereo unspecified) | inactive: -16.3% [at 57.1 µM]
27 | CC(C)c1ccc(NC2CCN(C(=O)OC(C)(C)C)CC2)cc1 | inactive: -16.3% [at 57.1 µM]
28 | CCOC(=O)N1CCC(Nc2ccc(OC)cc2)CC1 | inactive: 1.67%
29 | O=C(NCC1(N2CCCCC2)CCCCC1)c1ccc(Cl)s1 | inactive: 0.0773%
30 | N#CC1(Nc2ccccc2)CCN(Cc2ccccc2)CC1 | inactive: -4.81%
31 | O=C(OC1CN2CCC1CC2)C1c2ccccc2Oc2ccccc21 (stereo unspecified) | inactive: 8.07%
32 | COc1ccc(Cl)cc1C(=O)NCC1(N2CCOCC2)CCCCC1 | inactive: 3.98%
33 | O=C1C(O)=C([N+](=O)[O-])C(=O)C(O)=C1[N+](=O)[O-] | inactive: -14.3%
34 | O=C(NCC1(N2CCOCC2)CCCCC1)c1cc2ccccc2o1 | inactive: 4.8%
35 | O=C(NCC1(N2CCCCC2)CCCCC1)c1ccc(Cl)nc1 | inactive: 2.2% [at 57.1 µM]
36 | Cc1cc(C)cc(N(C(=O)c2ccccc2)C2CCN(C(=O)OC(C)(C)C)CC2)c1 | inactive: -13.1%
37 | CSc1ccccc1C(=O)NCC1(N2CCCCC2)CCCCC1 | inactive: 1.06%
38 | Cc1cccc(NC2(C#N)CCN(Cc3ccccc3)CC2)c1 | inactive: 8.15% [at 57.1 µM]
39 | O=C(NCC1(N2CCCCC2)CCCCC1)c1ccc(=O)[nH]c1 | inactive: 6.51%
40 | O=C(NCC1(N2CCCCC2)CCCCC1)c1cccs1 | inactive: 3.93%
41 | COc1ccc(C(=O)NCC2(N3CCCCC3)CCCCC2)cc1 | inactive: 2.67% [at 57.1 µM]
42 | CC(C)(C)OC(=O)N1CCC(N(C(=O)c2ccccc2)c2ccc(F)cc2)CC1 | inactive: 3.06%

Row | Compound | activity change, negative = substrate turnover
43 | COc1ccc(C(=O)NCC2(N3CCCCC3)CCCCC2)c(OC)c1OC | inactive: -0.494%
44 | CCOC(=O)N1CCC(Nc2cccc(C)c2)CC1 | inactive: 2.29%
45 | COc1cc(C(=O)NCC2(N(C)C)CCCCC2)ccc1OC(F)F | inactive: 4%
46 | CCCCOc1ccc(C(=O)NCC2(N3CCOCC3)CCCCC2)cc1 | inactive: -11.8%
47 | O=P1(N(CCCl)CCCl)SCCCS1 | inactive: 5.69%
48 | CCOC(=O)N1CCC(Nc2ccc(F)cc2)CC1 | inactive: 0.932%
49 | COc1ccc(NC2CCN(CCc3ccccc3)CC2)c(OC)c1 | inactive: 9.36% [at 57.1 µM]
50 | COc1ccccc1C(=O)NCC1(N2CCOCC2)CCCCC1 | inactive: 0.855%
51 | CCOc1ccc(C)cc1CN(CCCl)CCCl | inactive: 5.91% [at 57.1 µM]
52 | O=C(NCC1(N2CCOCC2)CCCCC1)c1ccc(Cl)cc1 | inactive: -0.9%
53 | O=C1CCN(Cc2ccccc2)CC1 | inactive: -4.85%
54 | O=C(NCC1(N2CCCCC2)CCCCC1)c1ccco1 | inactive: -3.49%
55 | CC(C)(C)c1ccc(C(=O)NCC2(N3CCOCC3)CCCCC2)cc1 | inactive: -5.19%
56 | CN(C)c1ccc(C(=O)NCC2(N3CCCCC3)CCCCC2)cc1 | inactive: -8.76% [at 57.1 µM]
57 | Cn1c(=O)[nH]cc(N(CCCl)CCCl)c1=O | inactive: -4.73%
58 | Cc1ccccc1C(=O)NCC1(N(C)C)CCCCC1 | inactive: 1.06%
59 | Cc1ccccc1NC1(C#N)CCN(Cc2ccccc2)CC1 | inactive: 3.17%
60 | CCN1CCC(Nc2cccc(F)c2)CC1 | inactive: -5.71%
61 | Cc1ccc(NC2(C#N)CCN(Cc3ccccc3)CC2)cc1 | inactive: 4.83% [at 57.1 µM]
